Measurements reported in patent US20170216277A1, “THERAPEUTIC USE OF […] AQUARETIC EFFECTS” (TREVI THERAPEUTICS, INC., priority 2016, published 2017).

Assays:
δ opioid receptor = details: in vitro; Gharagozlou et al., Neurosci. 2002 3:19; cited from earlier work
[1] = Urinalysis laboratory tests incl. urine specific gravity, TR01, healthy subjects (Cohort 2); details: Study Days 7 and 14, any subject

17-(cyclobutylmethyl)-4,5α-epoxymorphinian-3,6α,14-triol, hydrochloride [nalbuphine]
Activity at δ opioid receptor (δ opioid receptor): δ opioid receptor antagonist | Urine specific gravity relative to lowest pretreatment value [1]: did not decline relative to the lowest pretreatment value
